PubChem BioAssay AID2599 (Sanford-Burnham Center for Chemical Genomics, 2010)
Only a part is listed here, and it is no random draw. Some results for these compounds are left out of this collection, so the calls shown say nothing about other tests. The source made the active and inactive calls.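 Rule for the calls: active = inhibition above about 50% at the single tested dose (limit read from the data); inactive = the rest.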

Chains of the proteins cited; added tags and fusions are not shown. Residues count along the entry.
UniProt Q9GZR1, 628-1112 limits assumed: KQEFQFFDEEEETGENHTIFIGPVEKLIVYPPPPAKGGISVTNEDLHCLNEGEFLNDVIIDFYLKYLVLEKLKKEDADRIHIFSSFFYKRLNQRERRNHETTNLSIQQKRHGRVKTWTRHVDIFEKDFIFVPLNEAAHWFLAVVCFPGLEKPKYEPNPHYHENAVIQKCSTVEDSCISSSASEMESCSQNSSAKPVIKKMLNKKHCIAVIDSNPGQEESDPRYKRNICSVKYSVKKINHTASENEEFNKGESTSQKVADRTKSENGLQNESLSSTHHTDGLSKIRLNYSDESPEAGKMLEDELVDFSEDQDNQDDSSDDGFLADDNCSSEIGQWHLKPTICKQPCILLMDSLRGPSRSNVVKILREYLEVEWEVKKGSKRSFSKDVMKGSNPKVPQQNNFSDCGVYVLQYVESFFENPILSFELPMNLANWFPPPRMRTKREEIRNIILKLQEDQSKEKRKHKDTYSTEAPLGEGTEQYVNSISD

Each compound was assayed against Sentrin-specific protease 6 (Homo sapiens) (UniProt Q9GZR1) (assay: SENP6 protease inhibitors, primary screen, biochemical, luminescence, uHTS (AID 2599;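 note: plate controls were DMSO wells with enzyme for no effect and DMSO wells lacking enzyme for full effect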)). Conditions: Recombinant SENP6 catalytic domain, aminoluciferin luminescence; at 10 µM; active compounds read high.
For `C=CCN1CCN(CCOC(=O)C(O)(c2ccccc2)c2ccccc2)CC1`, the inhibition was inactive: 5.86%.
In the case of `O=C(NCC1(N2CCCCC2)CCCCC1)c1cc(F)c(F)cc1Cl`, the inhibition is reported as inactive: -8.69%.
`COc1ccc(C(=O)NCC2(N(C)C)CCCCC2)cc1` was tested, and the inhibition was inactive: -18.9%.
`CCN1CCCC(OC(=O)C2(O)c3ccccc3C=Cc3ccccc32)C1` (centres undefined) was tested, and the inhibition was inactive: 3.38%.
With `Cc1cc(C(=O)NCC2(N3CCCCC3)CCCCC2)ccc1[N+](=O)[O-]` the inhibition was inactive: -17.6%.
`O=C(NCC1(N2CCCCC2)CCCCC1)c1cccc(Br)c1` was tested, and the inhibition was inactive: -11.6%.
In the case of `Cc1ccccc1C(=O)NCC1(N2CCCCC2)CCCCC1`, the inhibition is reported as inactive: 16.6%.
In the case of `CN(C)c1ccc(C(=O)NCC2(N(C)C)CCCCC2)cc1`, the inhibition is reported as inactive: -27.6%.
In the case of `CN(C)C1CCCC1OC(=O)C(O)(c1ccccc1)c1ccccc1` (centres undefined), the inhibition is reported as inactive: -1.35%.
For `CCN(CC)CC(C)C(C)OC(=O)C(O)(c1ccccc1)c1ccccc1` (centres undefined), the inhibition was inactive: 10.5%.
For `COc1cc(SC)ccc1C(=O)NCC1(N(C)C)CCCCC1`, the inhibition was inactive: 11%.
`CC(C)N1C(=O)CC2(CCN(CCOC(=O)C(O)(c3ccccc3)c3ccccc3)CC2)C1=O` was tested, and the inhibition was inactive: -4.82%.
In the case of `Cc1ccc(C(=O)NCC2(N3CCCCC3)CCCCC2)cc1`, the inhibition is reported as inactive: 2.27%.
In the case of `O=C(NCC1(N2CCCCC2)CCCCC1)c1cc([N+](=O)[O-])ccc1Cl`, the inhibition is reported as inactive: 3.41%.
`CN1[C@@H]2CC[C@H]1CC(OC(=O)C(O)(c1ccccc1)c1ccccc1)C2` (some centres undefined) was tested, and the inhibition was inactive: 3.6%.
For `COc1ccc(Br)c(C(=O)NCC2(N3CCCCC3)CCCCC2)c1`, the inhibition was inactive: -10.8%.
`CC(C)Oc1ccc(C(=O)NCC2(N(C)C)CCCCC2)cc1` was tested, and the inhibition was inactive: -12.4%.
In the case of `CN(C)c1cccc(C(=O)NCC2(N(C)C)CCCCC2)c1`, the inhibition is reported as inactive: 1.15%.
In the case of `O=C(OC1CN2CCC1CC2)C(CO)(c1ccccc1)c1ccccc1` (centres undefined), the inhibition is reported as inactive: -40.4%.
With `COc1cccc(C(=O)NCC2(N3CCCCC3)CCCCC2)c1` the inhibition was inactive: 2.49%.
For `COc1ccc(Cl)cc1C(=O)NCC1(N(C)C)CCCCC1`, the inhibition was inactive: 13.2%.
`O=C(NCC1(N2CCCCC2)CCCCC1)c1cccc(Cl)c1` was tested, and the inhibition was inactive: 2.27%.
In the case of `CN(C)C1(CNC(=O)c2ccc(Br)cc2)CCCCC1`, the inhibition is reported as inactive: 26%.
With `COc1cc(C(=O)NCC2(N(C)C)CCCCC2)c([N+](=O)[O-])cc1OC` the inhibition was inactive: 7.09%.
